Data as given in US20230258569A1, “REAGENT FOR MEASURING SKIN SENSITIZATION, COMPOUND, AND METHOD FOR MEASURING SKIN SENSITIZATION” (FUJIFILM Corporation, priority 2020, published 2023).
Structures can show the parent of a compound that is named as a salt.

Test: Reactivity (% depletion) of nucleophilic reagent Compound 1 with test substance, HPLC; skin sensitization prediction
Details: FIG. 3, FIG. 4

| Compound | reactivity of Compound 1 in comparison with GSH-NBD | reactivity of Compound 1 in comparison with NAC and NAL in ADRA | reactivity of Compound 1 in comparison with NAC-amide | reactivity of Compound 1 in comparison with the cysteine peptide and the lysine peptide in DPRA |
| --- | --- | --- | --- | --- |
| CCOS(=O)(=O)OCC [Diethyl sulfate] | higher reactivity | higher reactivity | same level of reactivity | lower reactivity |
| C=CCCCCCCCCC=O [Compound 10-Undecenal, 10-Undecenal] | higher reactivity | higher reactivity | higher reactivity | higher reactivity |
